Laboratory results as given in patent US10112926B2 (priority 2014, dated 2018).

Protein sequences, listed by entry. Tags and fused reporters are not part of them. Lines headed by an entry give the natural chain unless they say otherwise; changes in a name come on top.
UniProt P42338: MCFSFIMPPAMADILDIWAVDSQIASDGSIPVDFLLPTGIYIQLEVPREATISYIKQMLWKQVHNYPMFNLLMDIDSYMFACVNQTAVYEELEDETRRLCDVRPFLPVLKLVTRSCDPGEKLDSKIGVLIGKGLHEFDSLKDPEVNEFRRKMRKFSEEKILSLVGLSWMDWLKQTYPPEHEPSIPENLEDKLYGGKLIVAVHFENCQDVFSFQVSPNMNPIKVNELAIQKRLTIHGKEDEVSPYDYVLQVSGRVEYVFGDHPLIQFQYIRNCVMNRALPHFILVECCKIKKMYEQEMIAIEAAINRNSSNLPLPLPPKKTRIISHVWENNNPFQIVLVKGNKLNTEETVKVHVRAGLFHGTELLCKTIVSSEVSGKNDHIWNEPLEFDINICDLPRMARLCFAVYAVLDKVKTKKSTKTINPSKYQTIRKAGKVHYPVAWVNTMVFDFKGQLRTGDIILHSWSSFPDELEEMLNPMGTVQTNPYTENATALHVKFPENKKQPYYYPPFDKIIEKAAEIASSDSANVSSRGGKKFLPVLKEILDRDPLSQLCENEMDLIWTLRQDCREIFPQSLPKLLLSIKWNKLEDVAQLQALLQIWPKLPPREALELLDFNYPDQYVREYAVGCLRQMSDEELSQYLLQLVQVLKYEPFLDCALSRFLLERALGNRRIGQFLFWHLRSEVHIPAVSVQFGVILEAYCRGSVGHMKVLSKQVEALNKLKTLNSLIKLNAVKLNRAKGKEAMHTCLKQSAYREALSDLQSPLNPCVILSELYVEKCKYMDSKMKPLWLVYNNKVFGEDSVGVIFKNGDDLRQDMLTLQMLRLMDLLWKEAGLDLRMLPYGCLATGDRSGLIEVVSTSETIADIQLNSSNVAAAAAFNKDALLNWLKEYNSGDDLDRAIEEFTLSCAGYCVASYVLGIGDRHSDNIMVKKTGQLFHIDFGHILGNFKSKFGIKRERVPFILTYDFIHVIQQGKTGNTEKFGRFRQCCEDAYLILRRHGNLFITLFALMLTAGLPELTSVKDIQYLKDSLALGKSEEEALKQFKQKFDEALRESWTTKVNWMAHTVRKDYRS
UniProt P42336, whole entry, looked up: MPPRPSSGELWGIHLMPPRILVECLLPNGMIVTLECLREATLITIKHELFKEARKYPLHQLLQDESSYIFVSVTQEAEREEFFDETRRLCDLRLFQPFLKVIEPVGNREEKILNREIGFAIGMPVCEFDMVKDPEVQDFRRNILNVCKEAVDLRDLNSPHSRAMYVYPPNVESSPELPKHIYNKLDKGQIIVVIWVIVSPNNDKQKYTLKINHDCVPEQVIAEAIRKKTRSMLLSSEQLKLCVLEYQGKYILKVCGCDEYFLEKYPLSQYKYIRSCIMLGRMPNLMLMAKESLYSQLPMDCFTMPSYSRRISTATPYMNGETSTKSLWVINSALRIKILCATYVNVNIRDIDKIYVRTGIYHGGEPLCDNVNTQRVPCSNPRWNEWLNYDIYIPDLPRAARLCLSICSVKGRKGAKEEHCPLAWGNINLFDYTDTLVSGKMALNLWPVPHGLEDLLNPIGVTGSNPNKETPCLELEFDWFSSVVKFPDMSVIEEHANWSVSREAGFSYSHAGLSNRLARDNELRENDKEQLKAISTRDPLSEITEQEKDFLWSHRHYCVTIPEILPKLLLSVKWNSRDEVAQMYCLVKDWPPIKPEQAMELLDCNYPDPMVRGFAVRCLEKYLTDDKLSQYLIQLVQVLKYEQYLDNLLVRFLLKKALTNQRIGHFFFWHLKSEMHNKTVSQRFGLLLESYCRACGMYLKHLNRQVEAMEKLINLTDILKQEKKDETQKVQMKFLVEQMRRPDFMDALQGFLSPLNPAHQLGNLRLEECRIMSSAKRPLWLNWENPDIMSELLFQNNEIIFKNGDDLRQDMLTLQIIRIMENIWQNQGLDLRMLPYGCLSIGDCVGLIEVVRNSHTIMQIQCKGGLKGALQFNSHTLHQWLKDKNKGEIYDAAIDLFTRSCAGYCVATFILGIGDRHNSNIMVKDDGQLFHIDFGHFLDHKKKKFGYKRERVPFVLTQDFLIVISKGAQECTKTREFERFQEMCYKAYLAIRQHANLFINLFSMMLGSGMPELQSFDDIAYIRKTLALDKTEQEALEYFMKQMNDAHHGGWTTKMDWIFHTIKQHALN

Columns and labels:
[1] = target: PI 3-kinase beta (Homo sapiens (Human), UniProt P42338); conditions: read-out: Assay B PI3Kβ IC50
[2] = target: PI 3-kinase beta (Rat-1 pBABEpuro Myr-HA-hp110 beta cells) (Homo sapiens (Human), UniProt P42338); assay: cell-based
[3] = target: PI 3-kinase alpha (Rat-1 pBABEpuro Myr-HA-hp110 alpha cells) (Homo sapiens (Human), UniProt P42336); assay: cell-based
[4] = target: PI 3-kinase alpha (Homo sapiens (Human), UniProt P42336); conditions: read-out: Assay A PI3Kα IC50

| SMILES | IC50 [1] [nM] | IC50 [2] [nM] | IC50 [3] [nM] | IC50 [4] [nM] |
| --- | --- | --- | --- | --- |
| Cc1ccc(S(=O)(=O)NCC(C)(C)O)cc1-c1cnc(N)c(-c2cnco2)c1 [Example 94a, 3-(6-amino-5-(oxazol-5-yl)pyridin-3-yl)-N-(2-hydroxy-2-methylpropyl)-4-methylbenzenesulfonamide] | 1800 | > 10000 | 3860 | 810 |
| Cc1cc(-c2cc(-c3cc(S(=O)(=O)N4CCNC(=O)C4)ccc3C)cnc2N)on1 [Example 19.17, 4-((3-(6-amino-5-(3-methylisoxazol-5-yl)pyridin-3-yl)-4-methylphenyl)sulfonyl) piperazin-2-one trifluoroacetic acid salt] | > 10000 | > 10000 | > 10000 | 1000 |
| Cc1ncc(-c2cc(-c3cc(S(=O)(=O)NCC4CCCOC4)ccc3C)cnc2N)o1 (stereo not shown) [Example 104.8, 3-(6-amino-5-(2-methyloxazol-5-yl)pyridin-3-yl)-4-methyl-N-((tetrahydro-2H-pyran-3-yl)methyl)benzenesulfon-amide] | – | – | 2550 | 150 |
| Cc1ncc(-c2cc(-c3cc(S(=O)(=O)NCC(F)(F)F)ccc3C)cnc2N)o1 [Example 104.9, 3-(6-amino-5-(2-methyloxazol-5-yl)pyridin-3-yl)-4-methyl-N-(2,2,2-trifluoroethyl)benzene-sulfonamide] | 1300 | 3490 | 2620 | 220 |
| Cc1nnc(-c2cc(-c3cc(S(=O)(=O)NCC(C)(C)O)ccc3C)cnc2N)s1 [Example 102, 3-(6-amino-5-(5-methyl-1,3,4-thiadiazol-2-yl)pyridin-3-yl)-N-(2-hydroxy-2-methylpropyl)-4-methylbenzenesulfonamide] | 1750 | > 10000 | > 10000 | 3100 |
| Cc1ncc(-c2cc(-c3cc(S(=O)(=O)NCC4CC4)ccc3C)cnc2N)o1 [Example 104.12, 3-(6-amino-5-(2-methyloxazol-5-yl)pyridin-3-yl)-N-(cyclopropylmethyl)-4-methylbenzenesulfon-amide] | 950 | 3810 | 1790 | 130 |
| Cc1ncc(-c2cc(-c3cc(S(=O)(=O)NCCCO)ccc3C)cnc2N)o1 [Example 104.6, 3-(6-amino-5-(2-methyloxazol-5-yl)pyridin-3-yl)-N-(3-hydroxypropyl)-4-methylbenzenesulfon-amide] | > 10000 | > 10000 | 5290 | 220 |
| Cc1cc(-c2cc(-c3cc(S(=O)(=O)N[C@@H]4CNC[C@H]4O)ccc3C)cnc2N)on1 [Example 19.4, 3-(6-amino-5-(3-methylisoxazol-5-yl)pyridin-3-yl)-N-(trans-4-hydroxypyrrolidin-3-yl)-4-methylbenzenesulfon-amide acetic acid salt] | 1700 | > 10000 | > 10000 | 460 |
| Cc1ncc(-c2cc(-c3cc(S(=O)(=O)NCC4CC(O)C4)ccc3C)cnc2N)o1 (stereo not shown) [Example 104.1, 3-(6-amino-5-(2-methyloxazol-5-yl)pyridin-3-yl)-N-((3-hydroxycyclobutyl)methyl)-4-methylbenzenesulfon-amide] | > 10000 | > 10000 | 3250 | 180 |
| Cc1ncc(-c2cc(-c3cc(S(=O)(=O)N[C@H]4CC[C@H](CO)CC4)ccc3C)cnc2N)o1 [Example 104.11, 3-(6-amino-5-(2-methyloxazol-5-yl)pyridin-3-yl)-N-((1r,4r)-4-(hydroxymethyl)cyclo-hexyl)-4-methylbenzenesulfon-amide] | – | 2630 | 1590 | 30 |
| Cc1ncc(-c2cc(-c3cc(S(=O)(=O)NCC4(CO)CCOCC4)ccc3C)cnc2N)o1 [Example 104.13, 3-(6-amino-5-(2-methyloxazol-5-yl)pyridin-3-yl)-N-((4-(hydroxymethyl)tetra-hydro-2H-pyran-4-yl)methyl)-4-methylbenzenesulfon-amide] | 1800 | > 10000 | > 10000 | 240 |
| Cc1cc(-c2cc(-c3cc(S(=O)(=O)N4C[C@H](C)[C@@H](O)C4)ccc3C)cnc2N)on1 (relative stereo) [Example 101.3, trans-1-((3-(6-amino-5-(3-methylisoxazol-5-yl)pyridin-3-yl)-4-methylphenyl)sulfonyl)-4-methylpyrrolidin-3-ol] | – | – | > 10000 | – |
| Cc1ncc(-c2cc(-c3cc(S(=O)(=O)NCC4COC4)ccc3C)cnc2N)o1 [Example 104.3, 3-(6-amino-5-(2-methyloxazol-5-yl)pyridin-3-yl)-4-methyl-N-(oxetan-3-ylmethyl)benzenesulfon-amide] | – | – | 5630 | 580 |
| Cc1cc(-c2cc(-c3cc(S(=O)(=O)N4CCCC(C)(O)CC4)ccc3C)cnc2N)on1 (stereo not shown) [Example 19.21, 1-((3-(6-amino-5-(3-methylisoxazol-5-yl)pyridin-3-yl)-4-methylphenyl)sulfonyl)-4-methylazepan-4-ol trifluoroacetic acid salt] | 3400 | > 10000 | 2910 | 660 |
| Cc1cc(-c2cc(-c3cc(S(=O)(=O)N4CCOC[C@@H]4C)ccc3C)cnc2N)on1 [Example 19.5, (S)-5-(2-methyl-5-((3-methylmorpholino)sulfon-yl)phenyl)-3-(3-methylisoxazol-5-yl)pyridin-2-amine trifluoroacetic acid salt] | 9200 | > 10000 | > 10000 | 2100 |
| Cc1cc(-c2cc(-c3cc(S(=O)(=O)NCC4(O)CC4)ccc3C)cnc2N)on1 [Example 19.10, 3-(6-amino-5-(3-methylisoxazol-5-yl)pyridin-3-yl)-N-((1-hydroxycyclopropyl)methyl)-4-methylbenzenesulfon-amide trifluoroacetic acid salt] | 3500 | > 10000 | 7300 | 420 |
| Cc1cc(-c2cc(-c3cc(S(=O)(=O)N4CCC[C@H]4CO)ccc3C)cnc2N)on1 [Example 19.15, (S)-(1-((3-(6-amino-5-(3-methylisoxazol-5-yl)pyridin-3-yl)-4-methylphenyl)sulfonyl)pyrrolidin-2-yl)methanol trifluoroacetic acid salt] | > 10000 | > 10000 | > 10000 | 790 |
| Cc1cc(-c2cc(-c3cc(S(=O)(=O)N[C@@H](C)C4CC4)ccc3C)cnc2N)on1 [Example 19.13, (S)-3-(6-amino-5-(3-methylisoxazol-5-yl)pyridin-3-yl)-N-(1-cyclopropylethyl)-4-methylbenzenesulfon-amide trifluoroacetic acid salt] | 3100 | > 10000 | 6330 | 610 |
| Cc1cc(-c2cc(-c3cc(S(=O)(=O)N[C@H]4CC[C@H](N)CC4)ccc3C)cnc2N)on1 [Example 19.3, 3-(6-amino-5-(3-methylisoxazol-5-yl)pyridin-3-yl)-N-(trans-4-aminocyclohexyl)-4-methylbenzenesulfon-amide acetic acid salt] | 680 | > 10000 | > 10000 | 1300 |
| Cc1ncc(-c2cc(-c3cc(S(=O)(=O)NC4CC4)ccc3C)cnc2N)o1 [Example 104.14, 3-(6-amino-5-(2-methyloxazol-5-yl)pyridin-3-yl)-N-cyclopropyl-4-methylbenzenesulfon-amide] | 1700 | 6470 | 1460 | 210 |
| Cc1cc(-c2cc(-c3cc(S(=O)(=O)N4CCCC4(C)C)ccc3C)cnc2N)on1 [Example 19.9, 5-(5-((2,2-dimethylpyrrolidin-1-yl)sulfonyl)-2-methylphenyl)-3-(3-methylisoxazol-5-yl)pyridin-2-amine trifluoroacetic acid salt] | 9500 | > 10000 | 5440 | 1600 |
| Cc1ccc(S(=O)(=O)N2CCN(C)CC2)cc1-c1cnc(N)c(C(=O)c2cccnc2)c1 [(ii), reference compound] | – | > 10000 | > 10000 | – |
| Cc1ncc(-c2cc(-c3cc(S(=O)(=O)NCC4(O)COC4)ccc3C)cnc2N)o1 [Example 104.7, 3-(6-amino-5-(2-methyloxazol-5-yl)pyridin-3-yl)-N-((3-hydroxyoxetan-3-yl)methyl)-4-methylbenzenesulfon-amide] | > 10000 | > 10000 | > 10000 | 310 |
| Cc1nnc(-c2cc(-c3cc(S(=O)(=O)NCCC(C)(C)O)ccc3C)cnc2N)s1 [Example 105, 3-(6-amino-5-(5-methyl-1,3,4-thiadiazol-2-yl)pyridin-3-yl)-N-(3-hydroxy-3-methylbutyl)-4-methylbenzenesulfonamide] | 7600 | 6590 | 6380 | 1300 |
| Cc1ncc(-c2cc(-c3cc(S(=O)(=O)NCC(C)(C)CO)ccc3C)cnc2N)o1 [Example 104.2, 3-(6-amino-5-(2-methyloxazol-5-yl)pyridin-3-yl)-N-(3-hydroxy-2,2-dimethylpropyl)-4-methylbenzenesulfon-amide] | > 10000 | 3260 | 2930 | 310 |
| Cc1cc(-c2cc(-c3cc(S(=O)(=O)NCCC4CCOCC4)ccc3C)cnc2N)on1 [Example 19.12, 3-(6-amino-5-(3-methylisoxazol-5-yl)pyridin-3-yl)-4-methyl-N-(2-(tetrahydro-2H-pyran-4-yl)ethyl)benzenesulfon-amide trifluoroacetic acid salt] | 2600 | > 10000 | 1640 | 240 |
| Cc1ccc(S(=O)(=O)NCC(C)(C)O)cc1-c1cnc(N)c(-c2ncco2)c1 [Example 94b, 3-(6-amino-5-(oxazol-2-yl)pyridin-3-yl)-N-(2-hydroxy-2-methylpropyl)-4-methylbenzenesulfonamide] | – | > 10000 | > 10000 | 750 |

Where a name gives a salt, the structure may show the parent alone.
